ChEMBL document CHEMBL1743201, “Casarett and Doull's Toxicology The Basic Science of Poisons, 7th edition” (2008)

Chains of the proteins cited; added tags and fusions are not shown. Lines headed by an entry give the natural chain unless they say otherwise; changes in a name come on top. Residues count along the entry.
UniProt P78417, 2-241 limits assumed: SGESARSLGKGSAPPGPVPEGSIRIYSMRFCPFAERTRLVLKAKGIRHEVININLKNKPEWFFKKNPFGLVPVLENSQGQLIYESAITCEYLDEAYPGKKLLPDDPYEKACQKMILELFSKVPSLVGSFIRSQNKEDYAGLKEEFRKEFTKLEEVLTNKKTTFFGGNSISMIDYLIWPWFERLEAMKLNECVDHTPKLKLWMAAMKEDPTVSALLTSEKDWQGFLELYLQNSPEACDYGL
UniProt Q9H4Y5: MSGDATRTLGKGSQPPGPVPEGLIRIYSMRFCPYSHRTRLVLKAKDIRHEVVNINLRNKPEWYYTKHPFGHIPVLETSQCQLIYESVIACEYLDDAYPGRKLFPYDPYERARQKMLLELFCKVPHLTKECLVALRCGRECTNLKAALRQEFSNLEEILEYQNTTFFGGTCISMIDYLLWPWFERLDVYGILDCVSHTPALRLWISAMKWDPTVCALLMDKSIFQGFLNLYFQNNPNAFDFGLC
UniProt P35503, 29-534 limits assumed: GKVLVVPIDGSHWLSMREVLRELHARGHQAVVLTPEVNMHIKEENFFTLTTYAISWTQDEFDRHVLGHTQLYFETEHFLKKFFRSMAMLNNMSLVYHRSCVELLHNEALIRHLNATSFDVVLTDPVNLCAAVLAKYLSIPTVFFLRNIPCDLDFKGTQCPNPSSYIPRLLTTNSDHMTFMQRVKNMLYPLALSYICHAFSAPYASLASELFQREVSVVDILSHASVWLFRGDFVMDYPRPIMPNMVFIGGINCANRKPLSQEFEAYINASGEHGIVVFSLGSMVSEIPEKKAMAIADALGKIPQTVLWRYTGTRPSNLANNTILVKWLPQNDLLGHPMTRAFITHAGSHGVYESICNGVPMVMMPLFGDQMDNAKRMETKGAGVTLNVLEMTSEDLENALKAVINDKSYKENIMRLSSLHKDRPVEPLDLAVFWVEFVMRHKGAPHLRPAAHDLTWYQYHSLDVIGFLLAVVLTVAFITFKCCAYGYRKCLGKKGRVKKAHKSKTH

Columns and labels:
Format in all cases: ADME
[1] = target: Glutathione S-transferase omega-1 (Homo sapiens, UniProt P78417); assay: Substrates for human cytosolic glutathione transferase GSTO1
[2] = target: Glutathione S-transferase omega-2 (Homo sapiens, UniProt Q9H4Y5); assay: Substrates for human cytosolic glutathione transferase GSTO2
[3] = target: UDP-glucuronosyltransferase 1A3 (Homo sapiens, UniProt P35503); assay: Substrate of human UDP-glucuronosyltransferase UGT1A3

Structure (SMILES)	Activity [1]	Activity [2]	Activity [3]
C[As](=O)(O)O	Substrate	Substrate	–
CO[C@]12CC[C@@]3(C[C@@H]1[C@](C)(O)C(C)(C)C)[C@H]1Cc4ccc(O)c5c4[C@@]3(CCN1)[C@H]2O5	–	–	Substrate
